Literature values as cited in patent US20120322745A1, “OPTIMIZED METHOD FOR OBTAINING ACE ACTIVITY INHIBITORY PEPTIDES FROM WHEY, ACE INHIBITORY PEPTIDES AND FOOD COMPRISING THEM” (QUEIZUAR ,S.L., priority 2011, published 2012).

Chains of the proteins cited; added tags and fusions are not shown. Lines headed by an entry give the natural chain unless they say otherwise; changes in a name come on top.
UniProt P02769: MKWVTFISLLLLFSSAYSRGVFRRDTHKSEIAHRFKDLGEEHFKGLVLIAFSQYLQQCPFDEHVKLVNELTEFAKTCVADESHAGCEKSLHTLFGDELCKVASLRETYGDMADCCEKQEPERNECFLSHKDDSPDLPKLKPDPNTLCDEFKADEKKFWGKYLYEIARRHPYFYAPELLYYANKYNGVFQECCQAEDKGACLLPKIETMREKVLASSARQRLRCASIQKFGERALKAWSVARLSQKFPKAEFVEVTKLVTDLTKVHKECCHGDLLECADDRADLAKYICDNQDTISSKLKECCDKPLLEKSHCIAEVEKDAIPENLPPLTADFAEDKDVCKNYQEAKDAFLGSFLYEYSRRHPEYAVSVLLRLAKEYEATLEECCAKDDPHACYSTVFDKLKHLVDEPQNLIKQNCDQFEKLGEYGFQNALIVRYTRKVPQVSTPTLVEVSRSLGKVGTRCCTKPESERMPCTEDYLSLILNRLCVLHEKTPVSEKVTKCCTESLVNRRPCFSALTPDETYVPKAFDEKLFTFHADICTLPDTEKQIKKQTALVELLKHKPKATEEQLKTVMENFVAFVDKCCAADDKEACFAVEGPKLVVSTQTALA

Molecular target: angiotensin converting enzyme (ACE)
Settings: ACE inhibitory peptides obtained by enzymatic hydrolysis of whey proteins

## BSA f(221-222): ACE inhibitory peptide, sequence FP, from whey protein hydrolysis with proteinase k (KF; UniProt P02769 245-246, looked up, fragment)
  IC50: 315 µM
